This passage reports IC50 results from patent US5589489A, “Cyclic amide derivatives for treating asthma” (Zeneca Limited, priority 1993, dated 1996).

The chains behind the UniProt entries cited, without tags or fusion partners.
UniProt P21452, whole entry: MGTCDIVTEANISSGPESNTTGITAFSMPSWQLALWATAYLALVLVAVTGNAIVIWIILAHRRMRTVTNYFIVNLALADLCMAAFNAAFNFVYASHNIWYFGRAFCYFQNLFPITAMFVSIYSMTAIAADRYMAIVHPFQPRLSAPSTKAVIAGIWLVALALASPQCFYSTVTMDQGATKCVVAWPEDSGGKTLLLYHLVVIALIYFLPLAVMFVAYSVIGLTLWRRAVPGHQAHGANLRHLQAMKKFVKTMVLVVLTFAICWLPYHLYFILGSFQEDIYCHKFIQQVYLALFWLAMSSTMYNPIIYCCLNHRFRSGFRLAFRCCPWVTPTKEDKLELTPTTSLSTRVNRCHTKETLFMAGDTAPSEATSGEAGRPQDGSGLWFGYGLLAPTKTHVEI

This assay concerns the target human NK2 receptor (Homo sapiens, UniProt P21452). The experiment in a line: Neurokinin A (NKA) Receptor-binding Assay (Test A), 3H-NKA binding to MEL cells expressing the NK2 receptor. The following applies: read-out: IC50 versus ^3 H-NKA binding to MEL; standard compound, initial use of the assay; human NK2 receptor expressed in MEL cells. An excerpt:
The selectivity of a Compound for binding at the NK2 receptor may be shown by determining its binding at other receptors using standard assays, for example, one using a tritiated derivative of SP in a tissue preparation selective for NK1 receptors or one using a tritiated derivative of NKB in a tissue preparation selective for NK3 receptors.
It will be appreciated that the implications of a Compound's activity in Test A or Test B is not limited to asthma, but rather, that the test provides evidence of general antagonism of NKA. […] For example, the compound described in Example 4 was typically found to have a Ki of 3.5 nM. In Test B, a pKB of 5 or greater was typically measured for a Compound of the invention. For example, a pKB of 7.7 was measured for the compound described in Example 4. It should be noted that there may not always be a direct correlation between the activities of Compounds measured as Ki values in Test A and the values measured in other assays, such as the pKB measured in Test B.

The IC50 is the concentration needed to halve the response being measured. Take `CSCC[C@@H]1NC(=O)[C@H](CC(C)C)NC(=O)CNC(=O)[C@H](Cc2ccccc2)NC(=O)[C@H](Cc2c[nH]c3ccccc23)NC(=O)[C@H](CCC(N)=O)NC1=O`: the IC50 amounted to 0.03 µM.
